pIC50: −log10 of the molar value.

Sequences of proteins named here, by UniProt entry; tags and fusion partners are left off. Residues count along the entry.
UniProt P07711, 114-333: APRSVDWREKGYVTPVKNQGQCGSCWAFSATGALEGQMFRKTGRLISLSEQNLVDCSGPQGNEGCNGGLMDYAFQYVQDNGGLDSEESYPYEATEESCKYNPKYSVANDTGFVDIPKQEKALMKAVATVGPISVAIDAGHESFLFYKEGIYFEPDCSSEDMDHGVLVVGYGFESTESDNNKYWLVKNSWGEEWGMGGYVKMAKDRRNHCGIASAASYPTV
UniProt P25774, 115-331: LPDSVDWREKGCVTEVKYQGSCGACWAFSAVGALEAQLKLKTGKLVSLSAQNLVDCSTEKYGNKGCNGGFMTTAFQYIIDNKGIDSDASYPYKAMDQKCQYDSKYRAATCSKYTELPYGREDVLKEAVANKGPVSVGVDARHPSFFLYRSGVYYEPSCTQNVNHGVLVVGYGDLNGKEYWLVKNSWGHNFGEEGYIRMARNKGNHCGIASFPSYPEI

In one test the target is human Cat L (Homo sapiens (Human), UniProt P07711). Kind of test: Cathepsin enzyme inhibition assay (fluorogenic peptide substrate), human Cat L. It counts as biochemical. As to conditions: human Cat L 1 nM, substrate Z-Val-Val-Arg-AMC 20 μM, pH 6.5. On the procedure:
(§1) Cathepsin Enzyme Inhibition Assay
(§2) Enzyme activity is measured by observing the increase in fluorescence intensity caused by cleavage of a peptide substrate containing a fluorophore whose emission is quenched in the intact peptide.
(§3) Assay buffer: 100 mM potassium phosphate pH 6.5, EDTA-Na 5 mM, Triton X-100 0.001%, DTT 5 mM.
(§4) Enzymes (all at 1 nM): human and mouse Cathepsin S, Cat K, Cat B, Cat L.
(§5) Substrate (20 μM): Z-Val-Val-Arg-AMC, except for Cat K which uses Z-Leu-Arg-AMC (both from Bachem).
(§6) AMC=7-Amino-4-Methyl-Coumarin.
(§7) Excitation 360 nm, Emission 465 nm.
(§8) Enzyme is added to the substance dilutions in 96-well microtitre plates and the reaction is started with substrate. Fluorescence emission is measured over 20 minutes, during which time a linear increase is observed in the absence of inhibitor. IC50 are calculated by standard methods.
(§9) Inhibition of human Cat S, mouse Cat S, human Cat K, human Cat B, human Cat L and mouse Cat L have been measured separately. The results obtained for human Cat S and L for representative compounds of the invention are expressed in the following table in μM.
`N#CC1(NC(=O)[C@@H]2C[C@@H](Sc3ncccc3Cl)CN2C(=O)C2(c3ncc(Cl)cc3F)CC2)CC1` [Example 10, (2S,4R)-1-[1-(5-Chloro-3-fluoro-pyridin-2-yl)-cyclopropanecarbonyl]-4-(3-chloro-pyridin-2-ylsulfanyl)-pyrrolidine-2-carboxylic acid (1-cyano-cyclopropyl)-amide]: the pIC50 (usually −log10 of the IC50, conventionally taken in molar units) is 4.80. `Cn1cc(-c2ccc(S(=O)(=O)[C@@H]3C[C@@H](C(=O)NC4(C#N)CC4)N(C(=O)C4(c5ncc(Cl)cc5Cl)CC4)C3)c(Cl)c2)cn1` [Example 40, (2S,4R)-4-[2-Chloro-4-(1-methyl-1H-pyrazol-4-yl)-benzenesulfonyl]-1-[1-(3,5-dichloro-pyridin-2-yl)-cyclopropanecarbonyl]-pyrrolidine-2-carboxylic acid (1-cyano-cyclopropyl)-amide] showed a pIC50 of 6.95.

A further test addresses human Cathepsin S (Homo sapiens (Human), UniProt P25774). Kind of test: Cathepsin enzyme inhibition assay (fluorogenic peptide substrate), human Cat S. It counts as biochemical. The following applies: human Cat S 1 nM, substrate Z-Val-Val-Arg-AMC 20 μM, pH 6.5. On the procedure:
as §1, §2, §3, §4, §5, §6, §7, §8, §9
`N#CC1(NC(=O)[C@@H]2C[C@@H](S(=O)(=O)c3cccc(-c4ccc(F)cc4)c3)CN2C(=O)C2(c3ncc(Cl)cc3F)CC2)CC1` [Example 13, (2S,4R)-1-[1-(5-Chloro-3-fluoro-pyridin-2-yl)-cyclopropanecarbonyl]-4-(4′-fluorobiphenyl-3-sulfonyl)-pyrrolidine-2-carboxylic acid (1-cyano-cyclopropyl)-amide] had a pIC50 of 9.11.

As for `N#CC1(NC(=O)[C@@H]2C[C@@H](S(=O)(=O)c3ncccc3Cl)CN2C(=O)C2(c3ncc(Cl)cc3F)CC2)CC1` [Example 14, (2S,4R)-1-[1-(5-Chloro-3-fluoro-pyridin-2-yl)-cyclopropanecarbonyl]-4-(3-chloropyridine-2-sulfonyl)-pyrrolidine-2-carboxylic acid (1-cyano-cyclopropyl)-amide], the pIC50 was 8.55.

For the molecule `Cc1cccc(S[C@@H]2C[C@@H](C(=O)NC3(C#N)CC3)N(C(=O)C3(c4ncc(Cl)cc4F)CC3)C2)n1` [Example 19, (2S,4R)-1-[1-(5-Chloro-3-fluoro-pyridin-2-yl)-cyclopropanecarbonyl]-4-(6-methyl-pyridin-2-ylsulfanyl)-pyrrolidine-2-carboxylic acid (1-cyano-cyclopropyl)-amide], the pIC50 is 6.90. This pIC50 lies 1.65 log units lower than the previous one.

Take `N#CC1(NC(=O)[C@@H]2C[C@@H](Sc3cc(C(F)(F)F)ccc3Cl)CN2C(=O)C2(c3ncc(Cl)cc3F)CC2)CC1` [Example 26, (2S,4R)-1-[1-(5-Chloro-3-fluoro-pyridin-2-yl)-cyclopropanecarbonyl]-4-(2-chloro-5-trifluoromethyl-phenylsulfanyl)-pyrrolidine-2-carboxylic acid (1-cyano-cyclopropyl)-amide]: the pIC50 was 8.46.

The values above are taken from patent US9409882B2, “Pyridine derivatives” (Hoffmann-La Roche Inc., priority 2012, dated 2016).
